# AlphaSeq binding of Ab-95 light chain variants to a spike HR2 peptide

Binding partner: SARS-CoV-2 spike HR2 peptide, sequence PDVDLGDISGINAS.

Ab-95 is the parent antibody, in scFv form: VH, then a 15-residue (Gly4Ser)3 linker, then VL. The heavy chain is unchanged in all variants.
VH: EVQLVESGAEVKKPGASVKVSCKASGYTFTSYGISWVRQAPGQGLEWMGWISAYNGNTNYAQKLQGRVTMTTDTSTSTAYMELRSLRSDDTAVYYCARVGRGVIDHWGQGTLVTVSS
VL: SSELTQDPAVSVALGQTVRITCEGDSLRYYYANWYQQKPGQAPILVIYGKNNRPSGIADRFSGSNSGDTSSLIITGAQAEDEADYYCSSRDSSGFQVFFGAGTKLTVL

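The starting antibody came from a phage panning campaign against this peptide. Library AAYL52 holds single substitutions and randomly drawn double and triple substitutions in the CDRs. The scFvs were displayed on barcoded MATa yeast, the peptide on MATalpha yeast. Pairs that bind mate more often; barcode pairs of the diploids are counted by sequencing. A regression on co-assayed BCL2-family reference pairs converts the normalised counts of each replicate to an apparent Kd. Each pool was mated in three replicate cultures.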

The whole VL of each variant is written out.
Numbers give log10(Kd / nM), so 0 is 1 nM and 3 is 1 µM. Smaller is tighter.
"nd" means that the variant was in the library but no mating with the target was seen in that replicate; the authors take this as a sign of poor binding, and no number exists.

VL | replicates, log10 nM | control signals
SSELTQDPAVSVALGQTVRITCEGPRLRYYYANWYQQKPGQAPILVIYGKVNRPSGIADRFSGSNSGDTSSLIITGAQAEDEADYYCSSRDSSGFQVFFGAGTKLTVL | nd nd nd | 1 of 9 (3.68)
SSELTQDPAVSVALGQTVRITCEGDRLRYYYAWWYQQKPGQAPILVIYGKNNRPSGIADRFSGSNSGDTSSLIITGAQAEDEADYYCSSRDSSGFQVCFGAGTKLTVL | nd nd nd | 0 of 9
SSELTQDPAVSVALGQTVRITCEGDSLRYYYALWYQQKPGQAPILVIYGKNNRPSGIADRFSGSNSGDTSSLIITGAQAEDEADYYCKSRDGSGFQVFFGAGTKLTVL | 5.43 nd nd | 1 of 9 (3.11)
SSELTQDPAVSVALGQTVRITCEGDSLRYYYANWYQQKPGQAPILVIYGKNNRPSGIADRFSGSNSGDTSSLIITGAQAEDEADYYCSSQDSPLFQVFFGAGTKLTVL | 3.50 4.62 nd | 4 of 9 (3.74)
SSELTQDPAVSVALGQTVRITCKGDSLRYYYENWYQQKPGQAPILVIYGKNNRPSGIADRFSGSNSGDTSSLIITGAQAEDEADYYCSHRDSSGFQVFFGAGTKLTVL | 4.14 4.55 nd | 4 of 9 (4.07)
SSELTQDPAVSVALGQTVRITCEGDSLRYYIANWYQQKPGQAPILVIYGRNNRPSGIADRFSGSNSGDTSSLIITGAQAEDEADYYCSSRDMSGFQVFFGAGTKLTVL | 2.52 2.91 3.13 | 6 of 9 (3.94)
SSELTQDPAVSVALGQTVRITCEGDSLTYYYANWYQQKPGQAPILVIYGKHNRPSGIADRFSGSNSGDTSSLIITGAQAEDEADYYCSSRDSHGFQVFFGAGTKLTVL | 3.75 nd nd | 1 of 9 (4.56)
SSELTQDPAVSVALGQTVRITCEGDSLRYYYANWYQQKPGQAPILVIYGKNNWPSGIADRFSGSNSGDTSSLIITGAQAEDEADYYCSHRDNSGFQVFFGAGTKLTVL | nd nd nd | 3 of 9 (4.38)
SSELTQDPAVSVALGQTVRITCEGDSTRYYYANWYQQKPGQAPILVIYGKNNRSSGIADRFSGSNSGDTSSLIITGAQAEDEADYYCSSRWSSGFQVFFGAGTKLTVL | nd nd nd | 2 of 9 (3.40)
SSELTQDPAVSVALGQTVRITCEIDSLRYYYANWYQQKPGQAPILVIYGKNWRPSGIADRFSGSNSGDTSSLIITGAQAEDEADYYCSSCDSSGFQVFFGAGTKLTVL | 3.33 5.02 3.44 | 2 of 9 (4.03)
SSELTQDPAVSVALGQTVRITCEGDSLRYYYANWYQQKPGQAPILVIYGKNNRPSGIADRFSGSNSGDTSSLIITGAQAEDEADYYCDSRDSSHFQIFFGAGTKLTVL | 4.01 4.31 4.84 | 5 of 9 (4.95)
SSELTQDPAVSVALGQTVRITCGGDSLRYAYANWYQQKPGQAPILVIYGKNNRPSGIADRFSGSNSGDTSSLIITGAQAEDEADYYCSSRDSSGGQVFFGAGTKLTVL | 1.71 1.66 1.15 | 3 of 9 (4.03)
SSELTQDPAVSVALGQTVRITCEGDSLRWYYANWYQQKPGQAPILVIYGKNNRPSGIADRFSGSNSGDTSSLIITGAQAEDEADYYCSSRDSMMFQVFFGAGTKLTVL | 4.16 3.62 3.33 | 0 of 9
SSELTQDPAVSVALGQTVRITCEGDSLRYYYANWYQQKPGQAPILVIYGKNMRPSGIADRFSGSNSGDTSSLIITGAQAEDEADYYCSSRDSSKFQVFFGAGTKLTVL | 2.01 2.18 1.06 | 3 of 9 (4.16)
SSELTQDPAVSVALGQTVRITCEGDSLRRYYANWYQQKPGQAPILVIYGWNNRPSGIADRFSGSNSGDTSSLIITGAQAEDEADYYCSSRDSSGFQVRFGAGTKLTVL | 4.33 2.90 4.30 | 2 of 9 (4.29)

The first 2 variants above that were never detected:

| VL | replicates, log10 nM | control signals |
|---|---|---|
| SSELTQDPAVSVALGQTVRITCEGPRLRYYYANWYQQKPGQAPILVIYGKVNRPSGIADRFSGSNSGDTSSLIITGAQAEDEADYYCSSRDSSGFQVFFGAGTKLTVL | nd nd nd | 1 of 9 (3.68) |
| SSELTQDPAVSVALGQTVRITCEGDRLRYYYAWWYQQKPGQAPILVIYGKNNRPSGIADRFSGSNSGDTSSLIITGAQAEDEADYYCSSRDSSGFQVCFGAGTKLTVL | nd nd nd | 0 of 9 |

Three control strains display no target. For library AAYL52, 28% of the pairings with them gave a signal, with a median of 3.91 and one signal in twenty below 2.90, so weak values seen in few replicates may be background. Also given: how often the same scFv was detected with the empty control strains, with their mean in brackets.
In this assay the parent's reference entry averaged 2.31; its copy inside this library read 2.25.

Source: Engelhart et al. 2022 (doi:10.1038/s41597-022-01779-4), MIT Lincoln Laboratory and A-Alpha Bio; data file from the FLAb repository.